Earlier results as cited in PMC4628734.

Amino acid sequences for entries named in this document (tags omitted). A change or cut given only in a name is not applied to a line headed by its entry. Residues count along the entry.
UniProt Q71F23: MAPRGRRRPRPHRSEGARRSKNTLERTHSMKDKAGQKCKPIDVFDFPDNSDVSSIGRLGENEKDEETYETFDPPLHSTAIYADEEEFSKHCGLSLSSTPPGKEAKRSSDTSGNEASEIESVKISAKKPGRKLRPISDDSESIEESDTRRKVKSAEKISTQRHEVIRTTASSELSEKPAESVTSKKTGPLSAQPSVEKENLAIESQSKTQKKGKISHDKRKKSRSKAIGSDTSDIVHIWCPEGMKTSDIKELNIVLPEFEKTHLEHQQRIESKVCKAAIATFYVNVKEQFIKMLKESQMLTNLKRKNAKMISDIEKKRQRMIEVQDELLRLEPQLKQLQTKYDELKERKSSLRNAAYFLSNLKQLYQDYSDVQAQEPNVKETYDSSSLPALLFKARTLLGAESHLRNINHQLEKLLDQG
UniProt P53350, 367-603: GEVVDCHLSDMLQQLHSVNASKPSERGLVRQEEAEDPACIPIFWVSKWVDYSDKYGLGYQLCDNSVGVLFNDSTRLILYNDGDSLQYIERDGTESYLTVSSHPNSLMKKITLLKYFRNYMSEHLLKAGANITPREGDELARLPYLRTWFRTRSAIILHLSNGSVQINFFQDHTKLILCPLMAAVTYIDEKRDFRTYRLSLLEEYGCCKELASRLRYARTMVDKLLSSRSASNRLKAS

Target: PBIP1 (Homo sapiens) (UniProt Q71F23)

PLK-1 PBD (from UniProt P53350)
Kd: 0.445 µM
